# Permeability data for macrocyclic peptides

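The data file gives no further conditions (lipid, pH, time, direction or concentration), and values from different papers need not be comparable. Other peptides of the study may be missing here. Peptides that the database sets to -10, its floor, are left out.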

PAMPA is the parallel artificial membrane permeability assay, which has no cells and reads passive diffusion.
Values are log10 P with P in cm/s, so -5 is more permeable than -7.

SMILES,PAMPA (log10 cm/s)
CC(=O)N1CCC[C@H]1C(=O)N(C)[C@H](CC(C)C)C(=O)N[C@@H]1C(=O)N(C)[C@@H](CC(C)C)C(=O)N(C)[C@H](CC(C)C)C(=O)N(C)[C@@H](CC(C)C)C(=O)N(C)[C@H](C)C(=O)N[C@@H](CC(C)C)C(=O)N2CCC[C@@H]2C(=O)O[C@@H]1C,-5.41
CC(=O)N1CCC[C@H]1C(=O)N(C)[C@@H](CC(C)C)C(=O)N[C@@H]1C(=O)N[C@H](CC(C)C)C(=O)N(C)[C@@H](CC(C)C)C(=O)N(C)[C@H](CC(C)C)C(=O)N(C)[C@H](C)C(=O)N[C@@H](CC(C)C)C(=O)N2CCC[C@H]2C(=O)O[C@@H]1C,-5.40
CC(=O)N1CCC[C@H]1C(=O)N(C)[C@@H](CC(C)C)C(=O)N[C@@H]1C(=O)N(C)[C@H](CC(C)C)C(=O)N[C@@H](CC(C)C)C(=O)N(C)[C@@H](CC(C)C)C(=O)N(C)[C@@H](C)C(=O)N[C@@H](CC(C)C)C(=O)N2CCC[C@H]2C(=O)O[C@@H]1C,-5.36
CC(=O)N1CCC[C@H]1C(=O)N(C)[C@@H](CC(C)C)C(=O)N[C@@H]1C(=O)N[C@H](CC(C)C)C(=O)N(C)[C@H](CC(C)C)C(=O)N(C)[C@@H](CC(C)C)C(=O)N(C)[C@@H](C)C(=O)N[C@H](CC(C)C)C(=O)N2CCC[C@H]2C(=O)O[C@@H]1C,-5.30
CC(=O)N1CCC[C@H]1C(=O)N(C)[C@@H](CC(C)C)C(=O)N[C@@H]1C(=O)N[C@H](CC(C)C)C(=O)N[C@@H](CC(C)C)C(=O)N[C@@H](CC(C)C)C(=O)N(C)[C@H](C)C(=O)N[C@H](CC(C)C)C(=O)N2CCC[C@@H]2C(=O)O[C@@H]1C,-5.85
CC(=O)N1CCC[C@@H]1C(=O)N(C)[C@@H](CC(C)C)C(=O)N[C@@H]1C(=O)N(C)[C@H](CC(C)C)C(=O)N[C@@H](CC(C)C)C(=O)N[C@H](CC(C)C)C(=O)N[C@@H](C)C(=O)N[C@@H](CC(C)C)C(=O)N2CCC[C@H]2C(=O)O[C@@H]1C,-6.25
CC(=O)N1CCC[C@H]1C(=O)N(C)[C@@H](CC(C)C)C(=O)N[C@@H]1C(=O)N[C@@H](CC(C)C)C(=O)N[C@H](CC(C)C)C(=O)N[C@@H](CC(C)C)C(=O)N[C@@H](C)C(=O)N[C@@H](CC(C)C)C(=O)N2CCC[C@H]2C(=O)O[C@@H]1C,-7.30
CC(=O)N1CCC[C@H]1C(=O)N(C)[C@@H](CC(C)C)C(=O)N[C@@H]1C(=O)N(C)[C@@H](CC(C)C)C(=O)N[C@H](CC(C)C)C(=O)N(C)[C@H](CC(C)C)C(=O)N(C)[C@@H](C)C(=O)N[C@@H](CC(C)C)C(=O)N2CCC[C@@H]2C(=O)O[C@@H]1C,-5.89
CC(=O)N1CCC[C@@H]1C(=O)N(C)[C@H](CC(C)C)C(=O)N[C@@H]1C(=O)N(C)[C@@H](CC(C)C)C(=O)N(C)[C@H](CC(C)C)C(=O)N(C)[C@@H](CC(C)C)C(=O)N(C)[C@@H](C)C(=O)N[C@@H](CC(C)C)C(=O)N2CCC[C@@H]2C(=O)O[C@@H]1C,-5.36
CC(=O)N1CCC[C@@H]1C(=O)N(C)[C@H](CC(C)C)C(=O)N[C@@H]1C(=O)N[C@H](CC(C)C)C(=O)N(C)[C@H](CC(C)C)C(=O)N(C)[C@H](CC(C)C)C(=O)N[C@@H](C)C(=O)N[C@H](CC(C)C)C(=O)N2CCC[C@H]2C(=O)O[C@@H]1C,-5.75
CC(=O)N[C@@H]1C(=O)N2CCC[C@H]2C(=O)N(C)[C@H](CC(C)C)C(=O)N[C@@H](CC(C)C)C(=O)N[C@@H](CC(C)C)C(=O)N(C)[C@H](CC(C)C)C(=O)N(C)[C@H](C)C(=O)N[C@@H](CC(C)C)C(=O)N2CCC[C@@H]2C(=O)O[C@@H]1C,-5.76
CC(=O)N1CCC[C@H]1C(=O)N[C@@H]1C(=O)N(C)[C@H](CC(C)C)C(=O)N[C@H](CC(C)C)C(=O)N[C@@H](CC(C)C)C(=O)N[C@@H](CC(C)C)C(=O)N(C)[C@@H](C)C(=O)N[C@@H](CC(C)C)C(=O)N2CCC[C@@H]2C(=O)O[C@@H]1C,-6.00
CC(=O)N1CCC[C@@H]1C(=O)N(C)[C@H](CC(C)C)C(=O)N[C@@H]1C(=O)N[C@H](CC(C)C)C(=O)N(C)[C@H](CC(C)C)C(=O)N[C@@H](CC(C)C)C(=O)N(C)[C@H](C)C(=O)N[C@H](CC(C)C)C(=O)N2CCC[C@H]2C(=O)O[C@@H]1C,-5.16
CC(=O)N1CCC[C@@H]1C(=O)N(C)[C@H](CC(C)C)C(=O)N[C@@H]1C(=O)N(C)[C@@H](CC(C)C)C(=O)N(C)[C@H](CC(C)C)C(=O)N[C@H](CC(C)C)C(=O)N(C)[C@H](C)C(=O)N[C@@H](CC(C)C)C(=O)N2CCC[C@H]2C(=O)O[C@@H]1C,-6.45
CC(=O)N1CCC[C@@H]1C(=O)N(C)[C@@H](CC(C)C)C(=O)N[C@@H]1C(=O)N(C)[C@H](CC(C)C)C(=O)N[C@H](CC(C)C)C(=O)N[C@@H](CC(C)C)C(=O)N(C)[C@H](C)C(=O)N[C@@H](CC(C)C)C(=O)N2CCC[C@H]2C(=O)O[C@@H]1C,-5.76
CC(=O)N1CCC[C@H]1C(=O)N(C)[C@H](CC(C)C)C(=O)N[C@@H]1C(=O)N(C)[C@H](CC(C)C)C(=O)N(C)[C@H](CC(C)C)C(=O)N[C@H](CC(C)C)C(=O)N(C)[C@@H](C)C(=O)N[C@H](CC(C)C)C(=O)N2CCC[C@@H]2C(=O)O[C@@H]1C,-5.50
CC(=O)N1CCC[C@H]1C(=O)N[C@@H]1C(=O)N[C@H](CC(C)C)C(=O)N(C)[C@H](CC(C)C)C(=O)N(C)[C@@H](CC(C)C)C(=O)N(C)[C@H](CC(C)C)C(=O)N(C)[C@@H](C)C(=O)N[C@@H](CC(C)C)C(=O)N2CCC[C@@H]2C(=O)O[C@@H]1C,-4.99
CC(=O)N1CCC[C@H]1C(=O)N[C@@H]1C(=O)N[C@H](CC(C)C)C(=O)N(C)[C@@H](CC(C)C)C(=O)N(C)[C@H](CC(C)C)C(=O)N[C@H](CC(C)C)C(=O)N(C)[C@H](C)C(=O)N[C@@H](CC(C)C)C(=O)N2CCC[C@@H]2C(=O)O[C@@H]1C,-4.92
CC(=O)N1CCC[C@H]1C(=O)N(C)[C@H](CC(C)C)C(=O)N[C@@H]1C(=O)N[C@H](CC(C)C)C(=O)N(C)[C@@H](CC(C)C)C(=O)N[C@@H](CC(C)C)C(=O)N(C)[C@@H](C)C(=O)N[C@H](CC(C)C)C(=O)N2CCC[C@H]2C(=O)O[C@@H]1C,-5.21
CC(=O)N1CCC[C@@H]1C(=O)N(C)[C@@H](CC(C)C)C(=O)N[C@@H]1C(=O)N(C)[C@@H](CC(C)C)C(=O)N[C@@H](CC(C)C)C(=O)N(C)[C@H](CC(C)C)C(=O)N(C)[C@@H](C)C(=O)N[C@@H](CC(C)C)C(=O)N2CCC[C@H]2C(=O)O[C@@H]1C,-5.43
CC(=O)N1CCC[C@@H]1C(=O)N(C)[C@H](CC(C)C)C(=O)N[C@@H]1C(=O)N[C@H](CC(C)C)C(=O)N[C@@H](CC(C)C)C(=O)N(C)[C@H](CC(C)C)C(=O)N(C)[C@H](C)C(=O)N[C@@H](CC(C)C)C(=O)N2CCC[C@H]2C(=O)O[C@@H]1C,-5.45
CC(=O)N1CCC[C@H]1C(=O)N(C)[C@@H](CC(C)C)C(=O)N[C@@H]1C(=O)N(C)[C@@H](CC(C)C)C(=O)N[C@H](CC(C)C)C(=O)N(C)[C@@H](CC(C)C)C(=O)N(C)[C@@H](C)C(=O)N[C@H](CC(C)C)C(=O)N2CCC[C@@H]2C(=O)O[C@@H]1C,-5.76

The first 2 entries again:

SMILES,PAMPA (log10 cm/s)
CC(=O)N1CCC[C@H]1C(=O)N(C)[C@H](CC(C)C)C(=O)N[C@@H]1C(=O)N(C)[C@@H](CC(C)C)C(=O)N(C)[C@H](CC(C)C)C(=O)N(C)[C@@H](CC(C)C)C(=O)N(C)[C@H](C)C(=O)N[C@@H](CC(C)C)C(=O)N2CCC[C@@H]2C(=O)O[C@@H]1C,-5.41
CC(=O)N1CCC[C@H]1C(=O)N(C)[C@@H](CC(C)C)C(=O)N[C@@H]1C(=O)N[C@H](CC(C)C)C(=O)N(C)[C@@H](CC(C)C)C(=O)N(C)[C@H](CC(C)C)C(=O)N(C)[C@H](C)C(=O)N[C@@H](CC(C)C)C(=O)N2CCC[C@H]2C(=O)O[C@@H]1C,-5.40

Values of Kelly et al. 2021, doi:10.1021/jacs.0c06115, as listed in CycPeptMPDB.